Laboratory results published in paper PMC8318206 (ACS catalysis, 2020).

Sequences of proteins named here, by UniProt entry; tags and fusion partners are left off. A change or cut given only in a name is not applied to a line headed by its entry.
UniProt P00183: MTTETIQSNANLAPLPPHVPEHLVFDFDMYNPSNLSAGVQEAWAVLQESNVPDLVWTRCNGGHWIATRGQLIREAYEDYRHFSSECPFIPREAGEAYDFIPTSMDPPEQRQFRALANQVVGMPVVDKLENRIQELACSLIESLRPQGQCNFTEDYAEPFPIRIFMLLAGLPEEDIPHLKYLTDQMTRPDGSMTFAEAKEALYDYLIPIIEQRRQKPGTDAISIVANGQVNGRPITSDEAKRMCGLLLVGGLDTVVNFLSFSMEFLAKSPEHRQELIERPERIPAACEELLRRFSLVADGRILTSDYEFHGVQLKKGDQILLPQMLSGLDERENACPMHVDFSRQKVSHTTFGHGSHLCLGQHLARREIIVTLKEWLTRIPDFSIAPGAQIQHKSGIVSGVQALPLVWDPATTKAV

Assays:
P450cam = P450cam (Pseudomonas putida, UniProt P00183); assay: Steady-state substrate binding titrations
[1] = H2O or buffer; cited from earlier work

d-(+)-camphor
Kd (P450cam; 10 mM Tris•HCl (pH 7.4) only, with Pdx (2-fold molar excess)): 21 ± 2 µM | Kd (P450cam; 10 mM Tris•HCl (pH 7.4) only, without Pdx): 23 ± 2 µM | Kd (P450cam; 10 mM Tris•HCl (pH 7.4), 15 mM KCl, with Pdx (2-fold molar excess)): 9.8 ± 0.8 µM | Kd (P450cam; 10 mM Tris•HCl (pH 7.4), 15 mM KCl, without Pdx): 9 ± 0.3 µM | Kd (P450cam; 20 mM potassium MOPS (pH 7.4), 200 mM KCl, absence of Pdx, 23 °C): ~1 µM and 1 µM | Kd (P450cam; 20 mM potassium MOPS (pH 7.4), 200 mM KCl, absence of Pdx, 23 °C, listed as Camphor): 1.1 µM | Kd (P450cam; 200 mM KCl, in the presence of Pdx): 0.95 ± 0.12 µM | Solubility limit [1]: 8 mM

Several values for one entry are separate records, joined by “and”; a condition that tells them apart may be missing. Equal values may be shown once.
